According to PubChem BioAssay (NCI):
“And” between values parts separate entries of the source, which are not always exact repeats. Equal entries are not always repeated.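 Five compound concentrations were applied to cells in 96-well plates for 48 hours; endpoints were derived by simple linear interpolation of the resulting dose-response curve. GI50: concentration for 50% inhibition of growth. TGI marks complete inhibition of growth.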

Columns and labels:
Test in all cases: NCI tumour cell line growth inhibition, 48 h
786-0 renal = test system: 786-0 renal
A498 renal = test system: A498 renal
A549 NSCLC = test system: A549 NSCLC
ACHN renal = test system: ACHN renal
BT-549 breast = test system: BT-549 breast
CAKI-1 renal = test system: CAKI-1 renal
CCRF-CEM leukemia = test system: CCRF-CEM leukemia
COLO 205 colon = test system: COLO 205 colon
DLD-1 colon = test system: DLD-1 colon
DMS 273 small cell lung = test system: DMS 273 small cell lung
DU-145 prostate = test system: DU-145 prostate
EKVX NSCLC = test system: EKVX NSCLC
HCC-2998 colon = test system: HCC-2998 colon
HCT-116 colon = test system: HCT-116 colon
HCT-15 colon = test system: HCT-15 colon
HL-60(TB) leukemia = test system: HL-60(TB) leukemia
HOP-18 NSCLC = test system: HOP-18 NSCLC
HOP-62 NSCLC = test system: HOP-62 NSCLC
HOP-92 NSCLC = test system: HOP-92 NSCLC
HS 578T breast = test system: HS 578T breast
HT29 colon = test system: HT29 colon
IGROV1 ovarian = test system: IGROV1 ovarian
K-562 leukemia = test system: K-562 leukemia
KM12 colon = test system: KM12 colon
KM20L2 colon = test system: KM20L2 colon
LXFL 529 NSCLC = test system: LXFL 529 NSCLC
M14 melanoma = test system: M14 melanoma
M19-MEL melanoma = test system: M19-MEL melanoma
MALME-3M melanoma = test system: MALME-3M melanoma
MDA-MB-231 breast = test system: MDA-MB-231 breast
MDA-MB-435 = test system: MDA-MB-435
MDA-N = test system: MDA-N
MOLT-4 leukemia = test system: MOLT-4 leukemia
NCI-H226 lung = test system: NCI-H226 lung
NCI-H23 lung = test system: NCI-H23 lung
NCI-H322M lung = test system: NCI-H322M lung
NCI-H460 lung = test system: NCI-H460 lung
NCI-H522 lung = test system: NCI-H522 lung
NCI/ADR-RES ovarian = test system: NCI/ADR-RES ovarian
OVCAR-3 ovarian = test system: OVCAR-3 ovarian
OVCAR-4 ovarian = test system: OVCAR-4 ovarian
OVCAR-5 ovarian = test system: OVCAR-5 ovarian
OVCAR-8 ovarian = test system: OVCAR-8 ovarian
P388 leukemia = test system: P388 leukemia
P388/ADR leukemia = test system: P388/ADR leukemia
PC-3 prostate = test system: PC-3 prostate
RPMI-8226 leukemia = test system: RPMI-8226 leukemia
RXF 393 renal = test system: RXF 393 renal
RXF-631 renal = test system: RXF-631 renal
SF-268 CNS = test system: SF-268 CNS
SF-295 CNS = test system: SF-295 CNS
SF-539 CNS = test system: SF-539 CNS
SK-MEL-2 melanoma = test system: SK-MEL-2 melanoma
SK-MEL-28 melanoma = test system: SK-MEL-28 melanoma
SK-MEL-5 melanoma = test system: SK-MEL-5 melanoma
SK-OV-3 ovarian = test system: SK-OV-3 ovarian
SN12C renal = test system: SN12C renal
SN12K1 renal = test system: SN12K1 renal
SNB-19 CNS = test system: SNB-19 CNS
SNB-75 CNS = test system: SNB-75 CNS
SNB-78 CNS = test system: SNB-78 CNS
SR leukemia = test system: SR leukemia
SW-620 colon = test system: SW-620 colon
T-47D breast = test system: T-47D breast
TK-10 renal = test system: TK-10 renal
U251 CNS = test system: U251 CNS
UACC-62 melanoma = test system: UACC-62 melanoma
UO-31 renal = test system: UO-31 renal
XF 498 CNS = test system: XF 498 CNS

With `CC1CCOC(=O)/C=C/C=C/C(=O)OC2CC3OC4C5OC5(C)C(O)CC4(COC(=O)C1O)C2(C)C31CO1` (stereo not drawn) the GI50 (786-0 renal) was 0.0707 µM, the TGI (786-0 renal) was 0.492 µM and the GI50 (A498 renal) was 0.0598 µM and 0.359 µM. For the same compound, the TGI (A498 renal) was 0.127 µM and 0.835 µM, the GI50 (A549 NSCLC) was 0.105 µM and the TGI (A549 NSCLC) was 0.413 µM and 1.23 µM. For the same compound, the GI50 (ACHN renal) was 0.0917 µM, the TGI (ACHN renal) was 0.842 µM and the GI50 (BT-549 breast) was 0.0131 µM. The TGI (BT-549 breast) was 0.0428 µM, the GI50 (CAKI-1 renal) was 0.115 µM and 0.249 µM and the TGI (CAKI-1 renal) was 0.909 µM. The GI50 (CCRF-CEM leukemia) was 0.00688 µM and 0.0334 µM, the TGI (CCRF-CEM leukemia) was 0.0537 µM and 0.0853 µM and the GI50 (COLO 205 colon) was 0.0683 µM and 0.199 µM. For the same compound, the TGI (COLO 205 colon) was 0.161 µM and 0.474 µM, the GI50 (DLD-1 colon) was 0.0579 µM and 0.0339 µM and the TGI (DLD-1 colon) was 0.433 µM and 0.16 µM. The GI50 (DMS 273 small cell lung) was 0.0599 µM and 0.0522 µM, the TGI (DMS 273 small cell lung) was 0.215 µM and 0.395 µM and the GI50 (DU-145 prostate) was 0.0754 µM. For the same compound, the TGI (DU-145 prostate) was 0.747 µM, the GI50 (EKVX NSCLC) was 0.065 µM and 0.0774 µM and the TGI (EKVX NSCLC) was 0.209 µM. For the same compound, the GI50 (HCC-2998 colon) was 0.0147 µM and 0.0689 µM, the TGI (HCC-2998 colon) was 0.053 µM and 0.259 µM and the GI50 (HCT-116 colon) was 0.024 µM and 0.0377 µM. For the same compound, the TGI (HCT-116 colon) was 0.155 µM and 0.212 µM, the GI50 (HCT-15 colon) was 0.0484 µM and 0.106 µM and the TGI (HCT-15 colon) was 0.151 µM and 0.749 µM. For the same compound, the GI50 (HL-60(TB) leukemia) was 0.00434 µM and 0.0253 µM, the TGI (HL-60(TB) leukemia) was 0.00736 µM and 0.0439 µM and the GI50 (HOP-18 NSCLC) was 0.259 µM. For the same compound, the TGI (HOP-18 NSCLC) was 0.63 µM and 4.49 µM, the GI50 (HOP-62 NSCLC) was 0.05 µM and 0.21 µM and the TGI (HOP-62 NSCLC) was 0.135 µM and 0.942 µM. The GI50 (HOP-92 NSCLC) was 0.228 µM and 0.136 µM, the TGI (HOP-92 NSCLC) was 0.867 µM and 1.11 µM and the GI50 (HS 578T breast) was 0.00147 µM. For the same compound, the TGI (HS 578T breast) was 0.0197 µM, the GI50 (HT29 colon) was 0.069 µM and 0.235 µM and the TGI (HT29 colon) was 0.185 µM and 1.73 µM. For the same compound, the GI50 (IGROV1 ovarian) was 0.0399 µM and 0.12 µM, the TGI (IGROV1 ovarian) was 0.148 µM and 0.6 µM and the GI50 (K-562 leukemia) was 0.00779 µM and 0.0307 µM. For the same compound, the TGI (K-562 leukemia) was 0.103 µM and 0.0976 µM, the GI50 (KM12 colon) was 0.023 µM and 0.077 µM and the TGI (KM12 colon) was 0.202 µM and 0.438 µM. For the same compound, the GI50 (KM20L2 colon) was 0.268 µM and 0.344 µM, the TGI (KM20L2 colon) was 0.709 µM and 1.56 µM and the GI50 (LXFL 529 NSCLC) was 0.0208 µM. The TGI (LXFL 529 NSCLC) was 0.0538 µM, the GI50 (M14 melanoma) was 0.019 µM and the TGI (M14 melanoma) was 0.0749 µM. The TGI (M19-MEL melanoma) was 0.3 µM and 0.232 µM, the GI50 (MALME-3M melanoma) was 0.00889 µM and 0.0402 µM and the TGI (MALME-3M melanoma) was 0.0244 µM and 0.101 µM. The GI50 (MDA-MB-231 breast) was 0.0534 µM, the TGI (MDA-MB-231 breast) was 0.402 µM and the GI50 (MDA-MB-435) was 0.0143 µM. For the same compound, the TGI (MDA-MB-435) was 0.0384 µM, the GI50 (MDA-N) was 0.0129 µM and the TGI (MDA-N) was 0.0411 µM. For the same compound, the GI50 (MOLT-4 leukemia) was 0.00848 µM and 0.0402 µM, the TGI (MOLT-4 leukemia) was 0.483 µM and 0.111 µM and the GI50 (NCI-H226 lung) was 0.0503 µM and 0.0438 µM. The TGI (NCI-H226 lung) was 0.119 µM and 0.12 µM, the GI50 (NCI-H23 lung) was 0.0523 µM and 0.297 µM and the TGI (NCI-H23 lung) was 0.119 µM and 0.989 µM. For the same compound, the GI50 (NCI-H322M lung) was 0.317 µM, the TGI (NCI-H322M lung) was 0.778 µM and 2.36 µM and the GI50 (NCI-H460 lung) was 0.0272 µM and 0.0422 µM. The TGI (NCI-H460 lung) was 0.0942 µM and 0.211 µM, the TGI (NCI-H522 lung) was 0.0243 µM and 0.0793 µM and the TGI (NCI/ADR-RES ovarian) was 6.65 µM. The GI50 (OVCAR-3 ovarian) was 0.041 µM and 0.049 µM, the TGI (OVCAR-3 ovarian) was 0.616 µM and 0.239 µM and the GI50 (OVCAR-4 ovarian) was 0.076 µM and 0.143 µM. For the same compound, the TGI (OVCAR-4 ovarian) was 0.191 µM and 0.496 µM, the GI50 (OVCAR-5 ovarian) was 0.0798 µM and the TGI (OVCAR-5 ovarian) was 0.275 µM and 2.02 µM. The GI50 (OVCAR-8 ovarian) was 0.0632 µM and 0.226 µM, the TGI (OVCAR-8 ovarian) was 0.174 µM and 0.486 µM and the GI50 (P388 leukemia) was 0.0175 µM. The TGI (P388 leukemia) was 0.0927 µM, the GI50 (P388/ADR leukemia) was 0.212 µM and the TGI (P388/ADR leukemia) was 0.655 µM. For the same compound, the GI50 (PC-3 prostate) was 0.0193 µM, the TGI (PC-3 prostate) was 0.0666 µM and the GI50 (RPMI-8226 leukemia) was 0.00698 µM and 0.0262 µM. The TGI (RPMI-8226 leukemia) was 0.1 µM and 0.0602 µM, the GI50 (RXF 393 renal) was 0.0752 µM and 0.181 µM and the TGI (RXF 393 renal) was 0.273 µM and 0.62 µM. The GI50 (RXF-631 renal) was 0.231 µM, the TGI (RXF-631 renal) was 0.717 µM and the GI50 (SF-268 CNS) was 0.1 µM and 0.197 µM. For the same compound, the TGI (SF-268 CNS) was 0.785 µM and 0.634 µM, the GI50 (SF-295 CNS) was 0.279 µM and 0.311 µM and the TGI (SF-295 CNS) was 0.786 µM and 0.715 µM. The GI50 (SF-539 CNS) was 0.0123 µM and 0.0563 µM, the TGI (SF-539 CNS) was 0.0499 µM and 0.195 µM and the GI50 (SK-MEL-2 melanoma) was 0.0603 µM. For the same compound, the TGI (SK-MEL-2 melanoma) was 0.245 µM, the GI50 (SK-MEL-28 melanoma) was 0.0233 µM and 0.0389 µM and the TGI (SK-MEL-28 melanoma) was 0.221 µM and 0.14 µM. For the same compound, the GI50 (SK-MEL-5 melanoma) was 0.00883 µM and 0.0445 µM, the TGI (SK-MEL-5 melanoma) was 0.0354 µM and 0.122 µM and the GI50 (SK-OV-3 ovarian) was 0.0691 µM. For the same compound, the GI50 (SN12C renal) was 0.14 µM, the TGI (SN12C renal) was 0.526 µM and 3.93 µM and the GI50 (SN12K1 renal) was 0.0304 µM. The TGI (SN12K1 renal) was 0.0576 µM, the GI50 (SNB-19 CNS) was 0.00692 µM and 0.0526 µM and the TGI (SNB-75 CNS) was 0.0733 µM and 0.46 µM. The GI50 (SNB-78 CNS) was 0.215 µM and 0.109 µM, the TGI (SNB-78 CNS) was 0.615 µM and 0.461 µM and the GI50 (SR leukemia) was 0.00742 µM. For the same compound, the GI50 (SW-620 colon) was 0.0543 µM and 0.0802 µM, the GI50 (T-47D breast) was 0.00484 µM and the TGI (T-47D breast) was 0.0486 µM. For the same compound, the GI50 (TK-10 renal) was 0.127 µM, the GI50 (U251 CNS) was 0.0118 µM and 0.0707 µM and the GI50 (UACC-62 melanoma) was 0.0618 µM and 0.181 µM. The TGI (UACC-62 melanoma) was 0.168 µM and 0.56 µM, the GI50 (UO-31 renal) was 0.162 µM and the TGI (UO-31 renal) was 0.534 µM and 1.44 µM. For the same compound, the GI50 (XF 498 CNS) was 0.0894 µM and 0.0614 µM and the TGI (XF 498 CNS) was 0.418 µM and 0.173 µM.
